Data: publication PMC6727465, “Discovery of 2-phenoxyacetamides as inhibitors of the Wnt-depalmitoleating enzyme NOTUM from an X-ray fragment screen” (MedChemComm, 2019)

These molecules were tested against T1, NOTUM(81-451 Cys330Ser) (Homo sapiens, UniProt Q6P988, C330S) (assay: biochemical).
T1 sequence (Q6P988 81-451 C330S): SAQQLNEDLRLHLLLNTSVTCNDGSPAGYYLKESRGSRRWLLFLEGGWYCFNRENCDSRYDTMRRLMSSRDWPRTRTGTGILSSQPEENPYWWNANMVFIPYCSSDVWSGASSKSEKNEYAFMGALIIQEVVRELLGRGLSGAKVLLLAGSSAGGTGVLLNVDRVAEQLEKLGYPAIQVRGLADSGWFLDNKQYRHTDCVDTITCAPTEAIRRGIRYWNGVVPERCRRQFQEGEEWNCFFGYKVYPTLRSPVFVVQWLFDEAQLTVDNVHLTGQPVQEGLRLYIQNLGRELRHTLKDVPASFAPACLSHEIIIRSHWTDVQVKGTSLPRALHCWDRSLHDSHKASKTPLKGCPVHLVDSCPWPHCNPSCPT

Row | Structure (SMILES) | IC50 [nM]
1 | Cc1ccccc1CCC(=O)Nc1cccnc1 [Compound 6] | 140000
2 | Cc1ccccc1OCC(=O)Nc1ccc2cc[nH]c2c1 [Compound 26] | 210
3 | Cc1ccccc1OCC(=O)Nc1ccc2nccnc2c1 [Compound 27] | 680
